The term pIC50 denotes the IC50 on a negative log10 scale, so that one unit is a factor of ten.

Amino acid sequences for entries named in this document (tags omitted). Residues count along the entry.
UniProt P08253, 110-660 limits assumed: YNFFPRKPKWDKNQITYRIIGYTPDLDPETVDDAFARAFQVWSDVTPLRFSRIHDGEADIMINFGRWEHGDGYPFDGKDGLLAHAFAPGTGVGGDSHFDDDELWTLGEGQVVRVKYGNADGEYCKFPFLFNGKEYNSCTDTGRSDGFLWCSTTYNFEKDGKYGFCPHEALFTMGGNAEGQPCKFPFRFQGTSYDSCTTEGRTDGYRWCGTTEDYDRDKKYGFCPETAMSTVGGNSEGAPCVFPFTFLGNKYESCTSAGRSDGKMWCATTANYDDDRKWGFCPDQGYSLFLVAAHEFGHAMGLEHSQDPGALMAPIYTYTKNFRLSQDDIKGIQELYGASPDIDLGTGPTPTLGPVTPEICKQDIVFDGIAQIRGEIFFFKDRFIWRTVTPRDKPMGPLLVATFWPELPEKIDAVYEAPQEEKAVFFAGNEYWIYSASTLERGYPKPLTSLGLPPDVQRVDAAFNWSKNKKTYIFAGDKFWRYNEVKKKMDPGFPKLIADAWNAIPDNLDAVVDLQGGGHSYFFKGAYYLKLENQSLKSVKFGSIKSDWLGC
UniProt P03956, 100-469 limits assumed: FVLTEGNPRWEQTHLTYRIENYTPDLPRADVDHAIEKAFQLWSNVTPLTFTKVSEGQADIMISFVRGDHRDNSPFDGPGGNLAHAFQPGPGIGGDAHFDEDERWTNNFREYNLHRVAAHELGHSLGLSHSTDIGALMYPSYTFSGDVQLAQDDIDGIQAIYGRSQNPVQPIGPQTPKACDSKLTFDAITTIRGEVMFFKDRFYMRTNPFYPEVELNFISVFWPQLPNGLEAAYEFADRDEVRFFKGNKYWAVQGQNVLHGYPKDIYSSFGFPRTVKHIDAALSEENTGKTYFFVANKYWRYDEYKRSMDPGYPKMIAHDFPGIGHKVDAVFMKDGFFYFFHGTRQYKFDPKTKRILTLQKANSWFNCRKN

pIC50: −log10 of the molar value.

Assay in all cases: In vitro MMP inhibition, fluorogenic peptide substrate
The target in one assay is Recombinant human MMP-2 (Homo sapiens, UniProt P08253). Particulars: read-out: MMP-2 IC50; Inhibition Table A.
For another assay, the target named is Recombinant human MMP-1 (Homo sapiens, UniProt P03956). To be noted: read-out: MMP-1 IC50; Inhibition Table A.
The target in the next assay is Recombinant human MMP-13 (Homo sapiens, UniProt P45452). The assay is classed as biochemical. Particulars: read-out: MMP-13 IC50; Inhibition Table A.

`O=C(O)c1ccccc1S(=O)(=O)N1CCC(Oc2ccc(C(F)(F)F)cc2)CC1`: the pIC50 on Recombinant human MMP-2 was 5.48; at Recombinant human MMP-1 it was < 5.00; on Recombinant human MMP-13 it was 5.42.

The values above are taken from patent US6683078B2, “Use of sulfonyl aryl or heteroaryl hydroxamic acids and derivatives thereof as aggrecanase inhibitors” (priority 2001, dated 2004).
